According to paper PMC4277633 (Iranian Journal of Pharmaceutical Research : IJPR, 2015):

Test system: Human Umbilical Vein Endothelial (HUVEC) cell line

c1ccc2c(c1)CCN2 [Compound 1d, indoline]
selectivity indices (SI): ≥ 10
